Sequences of proteins named here, by UniProt entry; tags and fusion partners are left off. Residues count along the entry.
UniProt P62575, 54-1006: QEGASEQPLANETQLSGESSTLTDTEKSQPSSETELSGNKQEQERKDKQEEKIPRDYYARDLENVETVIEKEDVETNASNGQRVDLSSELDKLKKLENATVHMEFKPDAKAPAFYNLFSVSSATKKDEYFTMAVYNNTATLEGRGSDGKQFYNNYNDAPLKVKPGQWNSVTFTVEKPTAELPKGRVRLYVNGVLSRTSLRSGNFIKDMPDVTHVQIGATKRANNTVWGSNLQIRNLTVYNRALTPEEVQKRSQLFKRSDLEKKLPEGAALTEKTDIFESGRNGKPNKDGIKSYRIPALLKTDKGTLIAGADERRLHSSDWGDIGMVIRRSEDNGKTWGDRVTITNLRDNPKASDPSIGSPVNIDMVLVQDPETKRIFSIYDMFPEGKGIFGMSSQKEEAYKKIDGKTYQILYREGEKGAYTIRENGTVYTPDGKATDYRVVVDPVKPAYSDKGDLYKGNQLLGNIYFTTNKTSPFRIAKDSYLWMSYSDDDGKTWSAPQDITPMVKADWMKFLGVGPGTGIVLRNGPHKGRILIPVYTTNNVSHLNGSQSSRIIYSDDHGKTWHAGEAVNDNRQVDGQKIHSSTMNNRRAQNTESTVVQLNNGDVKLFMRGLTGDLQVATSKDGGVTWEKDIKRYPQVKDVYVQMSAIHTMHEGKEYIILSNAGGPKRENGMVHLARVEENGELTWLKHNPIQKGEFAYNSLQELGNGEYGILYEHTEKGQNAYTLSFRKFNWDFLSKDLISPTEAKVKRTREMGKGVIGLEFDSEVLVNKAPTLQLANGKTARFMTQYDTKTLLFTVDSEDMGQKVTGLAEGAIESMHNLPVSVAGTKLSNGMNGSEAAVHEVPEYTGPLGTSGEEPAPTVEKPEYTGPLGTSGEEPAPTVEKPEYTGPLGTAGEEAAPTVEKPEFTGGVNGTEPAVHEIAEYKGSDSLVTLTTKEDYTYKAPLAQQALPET

In US11325936B2, “Sialidase inhibitors and preparation thereof” (The Regents of the University of California, priority 2017, dated 2022):

Molecular target: SpNanA (Streptococcus pneumoniae, UniProt P62575)
Test: Sialidase inhibition assay (Example 4)
Assay type: biochemical

CC(=O)N[C@H]1[C@H]([C@H](O)[C@H](O)CO)OC(C(=O)O)=C[C@@H]1O [compound 6, 5-Acetamido-2,6-anhydro-3,5-dideoxy-D-glycero-D-galacto-non-2-enonic acid, reference compound]
IC50: 10 ± 0.2 µM
